Source: paper PMC5224920, “Assessing the mechanism and therapeutic potential of modulators of the human Mediator complex-associated protein kinases” (eLife, 2016)

The chains behind the UniProt entries cited, without tags or fusion partners. Where a name states a change or a piece, a line headed by the entry shows the natural chain unless it says otherwise.
UniProt Q9BWU1: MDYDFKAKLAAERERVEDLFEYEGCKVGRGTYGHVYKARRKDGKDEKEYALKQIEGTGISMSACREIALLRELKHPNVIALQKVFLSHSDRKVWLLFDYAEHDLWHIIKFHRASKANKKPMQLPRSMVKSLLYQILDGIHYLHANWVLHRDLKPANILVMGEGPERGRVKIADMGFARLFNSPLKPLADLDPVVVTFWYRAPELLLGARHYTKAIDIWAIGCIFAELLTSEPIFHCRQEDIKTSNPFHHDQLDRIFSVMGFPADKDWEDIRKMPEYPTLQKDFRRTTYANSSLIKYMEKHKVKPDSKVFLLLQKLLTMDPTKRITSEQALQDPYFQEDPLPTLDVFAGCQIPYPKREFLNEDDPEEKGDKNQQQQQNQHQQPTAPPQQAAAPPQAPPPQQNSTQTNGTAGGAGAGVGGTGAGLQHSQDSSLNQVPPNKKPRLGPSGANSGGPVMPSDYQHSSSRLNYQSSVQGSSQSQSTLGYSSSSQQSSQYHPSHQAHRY

Target: T1, CDK19 (Homo sapiens, UniProt Q9BWU1)
T1 construct: purchased Proteros Biostructures GmbH (Germany), assay service
Test: CDK19 reporter displacement assay
Type: binding
Conditions: mean ± s.d. (at least three) or *± range (two repeats)

SMILES: CN1CCN(C(=O)c2ccc3cc(CCNc4ncnc5ccc(C#N)cc45)ccc3c2)CC1 [Senexin B, reference compound]
- IC50: 30.4 ± 1.7 nM
